The values below are quoted from earlier work in patent US11179415B1 (priority 2020, dated 2021).

The conditions of data set [1]: rats; cited from earlier work.
For data set [2] the following is noted: mouse; in drinking water up to several months; doses as high as 1000 mg/liter (1000 ppm or 0.1%); cited from earlier work.
The conditions of data set [3]: chicken; in drinking water up to several months; doses as high as 1000 mg/liter (1000 ppm or 0.1%); cited from earlier work.
The conditions of data set [4]: rat; in drinking water up to several months; doses as high as 1000 mg/liter (1000 ppm or 0.1%); cited from earlier work.

Read-outs that look alike come from different tables or passages of the source.

Take “sodium chlorite [NaCLO2, reference compound]”: the “lethal dose (LD)” value in data set [1] is on record as 140 mg/kg. The methemoglobin concentrations result in data set [2], in data set [3] and in data set [4] was “no significant increases” each time.
